The values that follow are results of earlier work, collected in US20050182002A1, “Agents which interact with a serotonin transporter for the treatment of cancer” (priority 2002, published 2005).

Molecules are shown by their SMILES.

This data set relates to neuronal SERT. To be noted: read-out: known IC50 values for blocking 5-HT uptake by neuronal SERT; cited from earlier work.

Consider `Fc1ccc([C@@H]2CCNC[C@H]2COc2ccc3c(c2)OCO3)cc1` [paroxetine], for which the IC50 (usually the midpoint of a concentration-inhibition curve) was 0.29 nM.
